Results on 64 compounds are retold here after PubChem BioAssay AID2014 (Sanford-Burnham Center for Chemical Genomics, 2009).

Sequences of proteins named here, by UniProt entry; tags and fusion partners are left off.
UniProt P11940, whole entry: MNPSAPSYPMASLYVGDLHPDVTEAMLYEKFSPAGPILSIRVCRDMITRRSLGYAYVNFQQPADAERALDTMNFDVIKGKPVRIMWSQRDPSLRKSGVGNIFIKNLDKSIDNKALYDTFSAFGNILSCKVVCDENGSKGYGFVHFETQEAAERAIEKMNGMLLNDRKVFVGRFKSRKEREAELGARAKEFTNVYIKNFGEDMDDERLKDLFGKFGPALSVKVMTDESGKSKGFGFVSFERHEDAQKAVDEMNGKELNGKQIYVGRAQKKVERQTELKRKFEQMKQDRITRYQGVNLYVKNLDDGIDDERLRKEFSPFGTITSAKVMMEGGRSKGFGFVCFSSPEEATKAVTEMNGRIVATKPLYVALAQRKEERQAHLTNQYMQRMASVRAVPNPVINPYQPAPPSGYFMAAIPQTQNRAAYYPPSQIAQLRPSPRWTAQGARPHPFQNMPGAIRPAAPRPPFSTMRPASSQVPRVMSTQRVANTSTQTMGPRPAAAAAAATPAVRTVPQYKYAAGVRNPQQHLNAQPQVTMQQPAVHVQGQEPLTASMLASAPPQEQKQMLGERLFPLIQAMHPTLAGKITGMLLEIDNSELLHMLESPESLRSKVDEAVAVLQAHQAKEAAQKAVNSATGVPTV

Molecules are shown by their SMILES. This is a selection; strong and weak results do not stand in their true shares. Active and inactive are the calls of the source. No rule for the calls is given here.

The target of this assay is Polyadenylate-binding protein 1 (Homo sapiens) (UniProt P11940). The experiment in a line: PABP poly(A) RNA binding inhibitors, primary screen, biochemical, fluorescence polarization, uHTS (AID 2014). As to conditions: at 35 µM, active compounds read high.
Turning to `Cc1c2c(nc3ccccc13)SC(C(Cl)Cl)C2` (centres undefined), the inhibition is inactive: -3.9%.
For the compound `O=C(OC1CN2CCC1CC2)C12CC3CC(CC(C3)C1)C2` (centres undefined), the inhibition is inactive: 4.3%.
Under `Cc1cc(=O)[nH]c(N[N+](=O)[O-])n1` stands inactive: 2.6%.
To `COc1ccc2nc(NP(=O)(c3ccccc3)c3ccccc3)sc2c1` belongs inactive: 16%; to `COc1cc(I)ccc1[As](=O)(O)O`, inactive: 0.7%.
Take `COc1ccc(N/C(=N/P(=O)(N2CCOCC2)N2CCOCC2)N2CCOCC2)cc1`: the inhibition is inactive: 10.3%.
Consider `O=[As](O)(c1ccc(O)cc1)c1ccccc1O`, for which the inhibition is inactive: 3.2%.
`C[As](=O)(O)c1cccc(C(=O)O)c1`: the inhibition was inactive: 3%.
Take `Cc1ccc(OP(=O)(Nc2ccc([N+](=O)[O-])cn2)Oc2ccc(C)cc2)cc1`: the inhibition is inactive: 3.4%.
For the compound `CC(C)(C)c1ccc(OP(C)(=O)Nc2ccc(SC(F)(F)F)cc2)cc1` (centres undefined), the inhibition was inactive: 4.8%.
As to `Cc1cccc(C)c1OP(C)(N)=O` (centres undefined), the inhibition is inactive: -6.3%.
Turning to `O=[N+]([O-])c1ccc2c(c1)C=Nc1ccccc1O2`, the inhibition is inactive: -7.9%.
On to `Cc1ccc2nc3c(c(C)c2c1)CC(C(Cl)Cl)S3` (centres undefined), for which the inhibition was inactive: -3.7%.
`CCOC(=O)c1ccc(NP(C)(=O)Oc2ccccc2)cc1` (centres undefined): the inhibition was inactive: 4.4%.
As to `ClCCSc1nnc(-c2cccnc2)o1`, the inhibition is inactive: -9.2%.
For `COc1ccccc1OP(C)(=O)Nc1ccc(C)cc1` (centres undefined), the inhibition is inactive: 3%.
Regarding `CC(C)c1ccc(OP(=O)(Nc2ccccn2)Oc2ccccc2F)cc1` (centres undefined), the inhibition is inactive: 6.8%.
`Cc1ccc(NP(C)(=O)Oc2ccccc2)c(C)c1` (centres undefined): the inhibition is inactive: -10.2%.
In the case of `COc1ccccc1OP(C)(=O)Nc1cc(Cl)ccc1C` (centres undefined), the inhibition was inactive: 5.7%.
For the compound `CCN(CC)C(=S)SC(NC=O)C(Cl)(Cl)Cl` (centres undefined), the inhibition is inactive: 13.4%.
Regarding `COc1ccc(OP(C)(=O)Nc2cccc(F)c2)cc1` (centres undefined), the inhibition was inactive: -2.8%.
As to `O=[N+]([O-])c1cc([N+](=O)[O-])c(-c2ccn[nH]2)s1`, the inhibition was inactive: -5.4%.
To `Cc1cc(C)cc(OP(C)(N)=O)c1` (centres undefined) belongs inactive: -1.7%.
With `CCCCOc1ccc(C(=O)NCC2(N3CCCCC3)CCCCC2)cc1OC`, the inhibition is inactive: -5.1%.
Take `Cc1cc(SC(NC(=O)c2ccccc2)C(Cl)(Cl)Cl)nc(C(C)C)n1` (centres undefined): the inhibition was inactive: -2.4%.
Under `CP(=S)(Nn1cnnc1)Oc1ccccc1` (centres undefined) stands inactive: -2.1%; under `CCOC(=O)Nc1cccc([As](=O)(O)O)c1`, inactive: -4.2%.
Under `Cc1cc(SC(NC=O)C(Cl)(Cl)Cl)ncn1` (centres undefined) stands inactive: 4.5%; under `O=P(Nc1ccccn1)(c1cccc2ccccc12)c1cccc2ccccc12`, inactive: -5.4%; under `COc1ccccc1OP(C)(=O)Nc1ccccc1` (centres undefined), inactive: 1%.
On to `CP(=O)(Nc1ccccc1Br)Oc1ccccc1` (centres undefined), for which the inhibition is inactive: 15.3%.
Under `O=[N+]([O-])c1ccc(Nc2ccc(Oc3ccc([N+](=O)[O-])cc3[N+](=O)[O-])cc2)c([N+](=O)[O-])c1` stands inactive: 4.3%.
In the case of `COP1(=S)c2c(C)nn(CCC#N)c2N=C(c2ccc(F)cc2)N1C` (centres undefined), the inhibition was inactive: 3.4%.
Under `CP(=O)(Nc1ccc(SC(F)(F)F)cc1)Oc1ccc(Cl)cc1` (centres undefined) stands inactive: -0.3%; under `Cc1cccc(C)c1OP(C)(=O)Nc1ccc(SC(F)(F)F)cc1` (centres undefined), inactive: -2.4%.
As to `CP(=O)(Oc1ccccc1)OC(c1ccccc1)C(F)(F)F` (centres undefined), the inhibition is inactive: 9.8%.
Under `CP(=O)(NC(=O)Nc1ccccc1)Oc1ccccc1` (centres undefined) stands inactive: -2.3%.
For the compound `O=C(COc1ccccc1)OC1CN2CCC1CC2` (centres undefined), the inhibition is inactive: -1.4%.
As for `CCc1ccc(OP(C)(=O)N2CCN(c3ccc([N+](=O)[O-])cc3)CC2)cc1` (centres undefined), the inhibition is inactive: 4.8%.
With `Cc1cc(C)cc(OP(C)(=O)Nc2ccc(SC(F)(F)F)cc2)c1` (centres undefined), the inhibition was inactive: -20.4%.
Take `O=C(Nc1ccncc1[N+](=O)[O-])c1ccc([N+](=O)[O-])cc1[N+](=O)[O-]`: the inhibition is inactive: 2%.
For the compound `O=C(OC1CN2CCC1CC2)c1cccc([N+](=O)[O-])c1` (centres undefined), the inhibition is inactive: -7.1%.
To `CCOP(C)(=S)SCC(=O)NC(C)C(=O)O` (centres undefined) belongs inactive: 6%; to `CCOC(=O)c1ccc(NP(C)(=O)Oc2ccc(OC)cc2)cc1` (centres undefined), inactive: -2.4%; to `CCOC(=O)c1ccc(NC(=O)C(C)(CCl)SC)cc1` (centres undefined), inactive: 10.6%.
Consider `CCC(C)N(CC(C)C)C(=S)SC(NC(C)=O)C(Cl)(Cl)Cl` (centres undefined), for which the inhibition is inactive: 33.1%.
Turning to `CP(=O)(Nc1ccccn1)Oc1ccc(Cl)cc1` (centres undefined), the inhibition was inactive: 0.7%.
Consider `CCC1=CC2Cc3nc4ccc(Cl)cc4c(N)c3C(C1)C2` (centres undefined), for which the inhibition was inactive: -13.5%.
As to `O=P1(Nc2ccccn2)COc2ccccc2OC1`, the inhibition was inactive: 6.2%.
On to `O=[N+]([O-])c1cc([N+](=O)[O-])c(-n2nnc3ccccc32)c([N+](=O)[O-])c1`, for which the inhibition was inactive: -3.8%.
With `CCOP(=O)(NC(=NC(C)c1ccccc1)NC(C)c1ccccc1)OCC` (centres undefined), the inhibition was inactive: -3%.
Take `CCOP(=O)(Nc1ccc(C)cn1)OCC`: the inhibition is inactive: -3%.
`Clc1n[nH]nc1-c1nn[nH][15n]1`: the inhibition was inactive: 12.8%.
`CC(C)(C)C(=O)NC(Sc1ncccn1)C(Cl)(Cl)Cl` (centres undefined): the inhibition was inactive: 3.5%.
Regarding `CN(C(=O)Cc1ccc(Cl)c(Cl)c1)[C@@H]1CCCC[C@H]1N1CCCC1`, the inhibition was inactive: 4.4%.
To `CC(C)/C=N\N=C(\N)N[N+](=O)[O-]` belongs inactive: 4.4%; to `O=[As](O)(c1ccccc1Br)c1ccccc1Br`, inactive: -4.2%.
Consider `Cc1nc2ccc3ccccc3c2s1.O=[N+]([O-])c1cc([N+](=O)[O-])c(O)c([N+](=O)[O-])c1`, for which the inhibition was inactive: 28.1%.
Turning to `Cc1nn(-c2ccccc2)c2c1P(=O)(N1CCOCC1)N(C)C(c1ccccc1)=N2` (centres undefined), the inhibition was inactive: 7.9%.
As for `Cc1ccc(C(=O)OC2CN3CCC2CC3)cc1` (centres undefined), the inhibition was inactive: 10.7%.
As for `CC1CCC(C(C)C)C(OP(=O)(Nc2ccccn2)c2ccccc2)C1` (centres undefined), the inhibition is inactive: -0.2%.
To `COc1cc(C2NCCC3(OCCO3)C2(C)C)cc(OC)c1OC.O=[N+]([O-])c1cc([N+](=O)[O-])c(O)c([N+](=O)[O-])c1` (centres undefined) belongs inactive: -6.6%; to `CN(C)C1(CNC(=O)c2ccc(S(C)(=O)=O)cc2)CCCCC1`, inactive: -5.2%.
To `O=[N+]([O-])c1cc([N+](=O)[O-])c(Nc2nnnn2CCO)c([N+](=O)[O-])c1` belongs inactive: 9.5%.

As usually defined, the inhibition is the drop in the measured response relative to a control, in per cent.
